The values that follow are results of earlier work, collected in US20130204238A1, “COMBINATION THERAPY” (FOLLICA, INC, priority 2010, published 2013).

By UniProt entry, the sequences of proteins in these tests, tags left out.
UniProt P49841, whole entry, species assumed: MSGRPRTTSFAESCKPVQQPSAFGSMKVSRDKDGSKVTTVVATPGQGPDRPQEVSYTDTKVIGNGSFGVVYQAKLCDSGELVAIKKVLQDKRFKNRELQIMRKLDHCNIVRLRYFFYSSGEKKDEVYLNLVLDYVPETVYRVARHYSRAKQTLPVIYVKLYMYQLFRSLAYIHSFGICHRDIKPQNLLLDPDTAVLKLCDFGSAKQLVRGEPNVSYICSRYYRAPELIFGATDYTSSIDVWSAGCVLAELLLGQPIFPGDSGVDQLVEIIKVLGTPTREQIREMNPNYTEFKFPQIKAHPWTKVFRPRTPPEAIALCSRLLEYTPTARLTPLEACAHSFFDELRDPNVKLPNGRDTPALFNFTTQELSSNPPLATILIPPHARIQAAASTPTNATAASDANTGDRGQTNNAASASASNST

The target in this data set is GSK3β (Homo sapiens, UniProt P49841). Conditions: compared with other indirubin derivatives.

On to indirubin 3′-monoxime, for which the toxicity result is “reduced toxicity”.
